Reference: ChEMBL document CHEMBL4354825, “Design and Synthesis of Basic Selective Estrogen Receptor Degraders for Endocrine Therapy Resistant Breast Cancer” (J Med Chem, 2019)

By UniProt entry, the sequences of proteins in these tests, tags left out.
UniProt P03372, whole entry: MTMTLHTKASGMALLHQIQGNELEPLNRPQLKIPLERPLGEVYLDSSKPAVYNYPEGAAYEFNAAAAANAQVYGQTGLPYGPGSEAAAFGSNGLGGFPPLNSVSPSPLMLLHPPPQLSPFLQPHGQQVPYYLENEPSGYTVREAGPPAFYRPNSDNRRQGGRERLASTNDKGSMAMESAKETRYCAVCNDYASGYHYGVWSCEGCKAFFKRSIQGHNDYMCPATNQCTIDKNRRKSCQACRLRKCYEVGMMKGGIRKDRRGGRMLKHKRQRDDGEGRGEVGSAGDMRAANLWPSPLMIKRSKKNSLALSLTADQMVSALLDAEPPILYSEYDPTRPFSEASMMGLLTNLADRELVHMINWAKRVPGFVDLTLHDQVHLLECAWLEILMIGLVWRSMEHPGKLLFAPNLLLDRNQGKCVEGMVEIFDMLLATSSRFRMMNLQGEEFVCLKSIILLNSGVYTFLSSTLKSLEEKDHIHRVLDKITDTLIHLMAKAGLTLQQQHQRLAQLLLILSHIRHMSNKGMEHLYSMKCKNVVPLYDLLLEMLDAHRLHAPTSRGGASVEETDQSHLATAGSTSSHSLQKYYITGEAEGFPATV

How the values were obtained:
Estrogen receptor = Estrogen receptor (Homo sapiens, UniProt P03372); test: Displacement of [3H]esterdiol from recombinant human full length ERalpha expressed in insect cells incubated for 45 to 90 mins by liquid scintillation counting method relative to control
Homo sapiens = species: Homo sapiens; test: Selectivity index, ratio of inhibition of ERbeta to inhibition of recombinant human full length ERalpha expressed in insect cells

| Structure (SMILES) | RBA (Estrogen receptor) [%] | Ratio (Homo sapiens) |
| --- | --- | --- |
| Cc1ccccc1C(=O)c1sc2cc(O)ccc2c1Oc1ccc(OCCN2CC(CF)C2)cc1 | 30.7 | < 4 |
| Cc1cc(F)cc(C)c1C(=O)c1sc2cc(O)ccc2c1Oc1ccc(OC2CN(C3CC3)C2)cc1 | 38.1 | < 4 |
| Cc1ccc(C(=O)c2sc3cc(O)ccc3c2Oc2ccc(OCCN3CC(CF)C3)cc2)c(C)c1 | 120 | – |
| O=C(c1ccc(F)cc1)c1sc2cc(O)ccc2c1Oc1ccc(OCCN2CC(CF)C2)cc1 | 9.15 | < 4 |
| Cc1cc(F)cc(C)c1C(=O)c1sc2cc(O)ccc2c1Oc1ccc(OC2CN(CCCF)C2)cc1 | 27.8 | < 4 |
| Cc1cc(F)cc(C)c1C(=O)c1sc2cc(O)ccc2c1Oc1ccc(OCCN2CC(CF)C2)cc1 | 59.6 | < 4 |
| Cc1cc(O)ccc1C(=O)c1sc2cc(O)ccc2c1Oc1ccc(OCCN2CC(CF)C2)cc1 | 21.9 | < 4 |
| O=C(c1ccc(O)cc1)c1sc2cc(O)ccc2c1Oc1ccc(OCCN2CC(CF)C2)cc1 | 57 | < 4 |
| Cc1ccccc1C(=O)c1sc2cc(O)ccc2c1Oc1ccc(OC2CN(CCCF)C2)cc1 | 91.8 | < 4 |
| Cc1cc(F)cc(C)c1C(=O)c1sc2cc(O)ccc2c1Oc1ccc(OCCN2CC[C@@H](CF)C2)cc1 | 32.6 | < 4 |
| O=C(c1ccccc1)c1sc2cc(O)ccc2c1Oc1ccc(OCCN2CC(CF)C2)cc1 | 80.6 | < 4 |
| O=C(c1cccc(F)c1)c1sc2cc(O)ccc2c1Oc1ccc(OCCN2CC(CF)C2)cc1 | – | < 4 |
| Cc1cc(F)ccc1C(=O)c1sc2cc(O)ccc2c1Oc1ccc(OCCN2CC(CF)C2)cc1 | 46.5 | < 4 |
